Assay results as given in paper PMC11157048 (Frontiers in Pharmacology, 2024).

Experiments:
[1] = target: rat liver microsomes (RLM); test: Inhibition of aumolertinib metabolism in rat liver microsomes (screen, IC50, Ki); details: Lineweaver-Burk secondary plot
[2] = target: human liver microsomes (HLM); test: Inhibition of aumolertinib metabolism in human liver microsomes (IC50, Ki); format: in vitro ADME; details: Lineweaver-Burk secondary plot

CCCc1nc2c(C)cc(-c3nc4ccccc4n3C)cc2n1Cc1ccc(-c2ccccc2C(=O)O)cc1 [Telmisartan]
αKi [1]: 7.29 µM
αKi [2]: 45.47 µM
